Data published in patent US12331032B2, “Quinone reductase 2 inhibitor compounds and uses thereof” (DUKE UNIVERSITY, priority 2018, dated 2025).

Protein sequences, listed by entry. Tags and fused reporters are not part of them. Lines headed by an entry give the natural chain unless they say otherwise; changes in a name come on top.
UniProt P08183, whole entry: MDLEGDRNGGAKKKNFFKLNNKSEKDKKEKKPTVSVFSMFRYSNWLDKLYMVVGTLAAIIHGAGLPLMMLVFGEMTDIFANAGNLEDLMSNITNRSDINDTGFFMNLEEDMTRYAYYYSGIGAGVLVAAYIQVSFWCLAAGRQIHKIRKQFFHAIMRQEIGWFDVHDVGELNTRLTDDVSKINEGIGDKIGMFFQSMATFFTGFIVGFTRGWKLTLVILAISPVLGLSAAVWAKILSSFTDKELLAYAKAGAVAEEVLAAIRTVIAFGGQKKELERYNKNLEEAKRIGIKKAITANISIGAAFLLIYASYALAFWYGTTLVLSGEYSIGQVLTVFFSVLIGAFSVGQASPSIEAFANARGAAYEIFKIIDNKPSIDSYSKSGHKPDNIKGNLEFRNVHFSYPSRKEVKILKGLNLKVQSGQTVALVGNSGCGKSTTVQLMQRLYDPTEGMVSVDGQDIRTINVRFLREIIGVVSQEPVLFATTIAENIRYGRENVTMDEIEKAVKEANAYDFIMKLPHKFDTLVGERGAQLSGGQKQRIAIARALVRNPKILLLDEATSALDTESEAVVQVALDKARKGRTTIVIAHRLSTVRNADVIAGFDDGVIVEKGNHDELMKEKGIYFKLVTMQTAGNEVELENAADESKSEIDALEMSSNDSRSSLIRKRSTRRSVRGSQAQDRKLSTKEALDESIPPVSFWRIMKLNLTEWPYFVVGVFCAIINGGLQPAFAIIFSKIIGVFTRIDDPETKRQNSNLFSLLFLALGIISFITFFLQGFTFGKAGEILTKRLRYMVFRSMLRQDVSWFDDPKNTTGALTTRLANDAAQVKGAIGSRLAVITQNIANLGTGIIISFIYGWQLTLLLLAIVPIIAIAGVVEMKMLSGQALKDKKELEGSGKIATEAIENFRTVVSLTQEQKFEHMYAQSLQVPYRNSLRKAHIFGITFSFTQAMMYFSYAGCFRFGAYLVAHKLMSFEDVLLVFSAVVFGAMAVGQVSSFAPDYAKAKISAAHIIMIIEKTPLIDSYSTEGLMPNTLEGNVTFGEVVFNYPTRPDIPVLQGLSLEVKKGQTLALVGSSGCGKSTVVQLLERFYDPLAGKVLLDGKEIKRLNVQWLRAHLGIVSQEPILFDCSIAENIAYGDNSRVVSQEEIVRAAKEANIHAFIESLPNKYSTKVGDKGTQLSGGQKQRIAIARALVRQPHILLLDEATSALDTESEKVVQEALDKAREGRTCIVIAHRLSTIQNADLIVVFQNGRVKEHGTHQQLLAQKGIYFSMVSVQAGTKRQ
UniProt Q12809: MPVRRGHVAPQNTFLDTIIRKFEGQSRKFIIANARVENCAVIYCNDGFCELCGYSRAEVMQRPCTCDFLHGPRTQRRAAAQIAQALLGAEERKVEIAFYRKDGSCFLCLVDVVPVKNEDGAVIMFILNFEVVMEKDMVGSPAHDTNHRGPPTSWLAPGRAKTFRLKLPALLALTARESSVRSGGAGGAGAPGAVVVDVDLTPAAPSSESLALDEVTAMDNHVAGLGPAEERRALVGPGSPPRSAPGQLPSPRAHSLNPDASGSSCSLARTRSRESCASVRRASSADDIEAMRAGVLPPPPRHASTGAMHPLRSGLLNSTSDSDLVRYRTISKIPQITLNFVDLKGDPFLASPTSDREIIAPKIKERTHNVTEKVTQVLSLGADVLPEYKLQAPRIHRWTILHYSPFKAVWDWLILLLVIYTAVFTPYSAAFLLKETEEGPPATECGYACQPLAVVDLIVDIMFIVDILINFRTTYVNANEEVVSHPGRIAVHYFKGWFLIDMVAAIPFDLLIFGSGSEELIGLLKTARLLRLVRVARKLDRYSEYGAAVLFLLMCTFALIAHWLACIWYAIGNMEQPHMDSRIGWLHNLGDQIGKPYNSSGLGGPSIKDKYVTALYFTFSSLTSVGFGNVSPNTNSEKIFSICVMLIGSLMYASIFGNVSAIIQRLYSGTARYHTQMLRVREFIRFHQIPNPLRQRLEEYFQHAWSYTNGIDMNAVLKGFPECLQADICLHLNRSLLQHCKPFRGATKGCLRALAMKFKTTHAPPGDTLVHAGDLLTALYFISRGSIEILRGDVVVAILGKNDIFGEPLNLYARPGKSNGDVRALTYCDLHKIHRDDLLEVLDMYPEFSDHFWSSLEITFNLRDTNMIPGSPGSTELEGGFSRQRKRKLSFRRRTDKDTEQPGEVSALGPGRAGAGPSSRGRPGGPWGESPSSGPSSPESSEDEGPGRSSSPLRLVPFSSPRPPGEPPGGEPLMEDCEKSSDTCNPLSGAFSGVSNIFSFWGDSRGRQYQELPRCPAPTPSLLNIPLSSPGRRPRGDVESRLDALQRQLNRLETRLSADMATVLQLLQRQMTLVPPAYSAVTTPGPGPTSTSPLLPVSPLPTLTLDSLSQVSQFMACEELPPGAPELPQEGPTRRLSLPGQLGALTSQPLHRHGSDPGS

Key:
[1] = human plasma protein binding by ultracentrifugation
[2] = modified Ames assay
[3] = target: P-glycoprotein (Homo sapiens, UniProt P08183); details: not told
[4] = target: hERG ion channel (Homo sapiens, UniProt Q12809); test: hERG ion channel inhibition
[5] = mouse plasma protein binding by ultracentrifugation
[6] = tested on: mouse hepatocyte; test: mouse hepatocyte stability; details: mouse hepatocytes, at 1 hour
[7] = tested on: human hepatocyte; test: human hepatocyte stability; details: human hepatocytes, at 1 hour

Substance: 7-methoxy-4-(pyridin-3-yl) methylaminoquinoline [QR2I-44]
- plasma protein binding, bound [1]: 50-70%
- mutagenicity [2]: not mutagenic
- P-glycoprotein substrate or inhibitor [3]: not a P-glycoprotein substrate or inhibitor
- IC50 [4]: > 10 µM
- plasma protein binding, bound [5]: 50-70%
- hepatocyte stability, remaining [6]: > 90%
- hepatocyte stability, remaining [7]: > 90%
